Source: patent publication US9975907B2, “Pyrimidinones as PI3K inhibitors” (Incyte Corporation, priority 2009, dated 2018)

By UniProt entry, the sequences of proteins in these tests, tags left out. Where a name states a change or a piece, a line headed by the entry shows the natural chain unless it says otherwise.
UniProt O00329, whole entry, species assumed: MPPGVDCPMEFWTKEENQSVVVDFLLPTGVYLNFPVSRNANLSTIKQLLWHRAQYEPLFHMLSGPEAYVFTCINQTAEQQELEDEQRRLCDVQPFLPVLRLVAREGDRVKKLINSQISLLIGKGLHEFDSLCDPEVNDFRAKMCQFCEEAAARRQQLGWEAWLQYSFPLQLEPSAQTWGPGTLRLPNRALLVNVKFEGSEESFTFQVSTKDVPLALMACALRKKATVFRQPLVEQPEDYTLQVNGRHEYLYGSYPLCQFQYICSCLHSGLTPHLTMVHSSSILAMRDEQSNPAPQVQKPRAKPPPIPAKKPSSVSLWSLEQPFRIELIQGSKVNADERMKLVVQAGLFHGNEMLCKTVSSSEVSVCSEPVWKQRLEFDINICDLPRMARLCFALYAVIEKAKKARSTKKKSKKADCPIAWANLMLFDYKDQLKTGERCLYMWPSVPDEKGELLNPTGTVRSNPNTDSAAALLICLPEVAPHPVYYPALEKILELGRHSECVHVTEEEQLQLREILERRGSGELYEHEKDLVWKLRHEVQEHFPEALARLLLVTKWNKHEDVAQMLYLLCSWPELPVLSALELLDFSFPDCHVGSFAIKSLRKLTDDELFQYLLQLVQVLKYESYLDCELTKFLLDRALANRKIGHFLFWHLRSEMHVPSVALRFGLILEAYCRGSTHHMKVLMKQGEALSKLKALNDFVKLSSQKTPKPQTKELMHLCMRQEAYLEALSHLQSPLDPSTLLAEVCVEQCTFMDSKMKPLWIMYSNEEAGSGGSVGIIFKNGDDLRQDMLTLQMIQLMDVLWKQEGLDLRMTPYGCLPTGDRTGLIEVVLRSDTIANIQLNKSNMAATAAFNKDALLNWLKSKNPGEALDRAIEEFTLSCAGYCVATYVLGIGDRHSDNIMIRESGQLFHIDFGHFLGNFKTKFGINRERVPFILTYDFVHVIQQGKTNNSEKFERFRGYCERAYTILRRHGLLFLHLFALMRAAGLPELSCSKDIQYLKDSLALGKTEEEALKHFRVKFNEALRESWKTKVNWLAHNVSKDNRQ
UniProt P42336, whole entry, species assumed: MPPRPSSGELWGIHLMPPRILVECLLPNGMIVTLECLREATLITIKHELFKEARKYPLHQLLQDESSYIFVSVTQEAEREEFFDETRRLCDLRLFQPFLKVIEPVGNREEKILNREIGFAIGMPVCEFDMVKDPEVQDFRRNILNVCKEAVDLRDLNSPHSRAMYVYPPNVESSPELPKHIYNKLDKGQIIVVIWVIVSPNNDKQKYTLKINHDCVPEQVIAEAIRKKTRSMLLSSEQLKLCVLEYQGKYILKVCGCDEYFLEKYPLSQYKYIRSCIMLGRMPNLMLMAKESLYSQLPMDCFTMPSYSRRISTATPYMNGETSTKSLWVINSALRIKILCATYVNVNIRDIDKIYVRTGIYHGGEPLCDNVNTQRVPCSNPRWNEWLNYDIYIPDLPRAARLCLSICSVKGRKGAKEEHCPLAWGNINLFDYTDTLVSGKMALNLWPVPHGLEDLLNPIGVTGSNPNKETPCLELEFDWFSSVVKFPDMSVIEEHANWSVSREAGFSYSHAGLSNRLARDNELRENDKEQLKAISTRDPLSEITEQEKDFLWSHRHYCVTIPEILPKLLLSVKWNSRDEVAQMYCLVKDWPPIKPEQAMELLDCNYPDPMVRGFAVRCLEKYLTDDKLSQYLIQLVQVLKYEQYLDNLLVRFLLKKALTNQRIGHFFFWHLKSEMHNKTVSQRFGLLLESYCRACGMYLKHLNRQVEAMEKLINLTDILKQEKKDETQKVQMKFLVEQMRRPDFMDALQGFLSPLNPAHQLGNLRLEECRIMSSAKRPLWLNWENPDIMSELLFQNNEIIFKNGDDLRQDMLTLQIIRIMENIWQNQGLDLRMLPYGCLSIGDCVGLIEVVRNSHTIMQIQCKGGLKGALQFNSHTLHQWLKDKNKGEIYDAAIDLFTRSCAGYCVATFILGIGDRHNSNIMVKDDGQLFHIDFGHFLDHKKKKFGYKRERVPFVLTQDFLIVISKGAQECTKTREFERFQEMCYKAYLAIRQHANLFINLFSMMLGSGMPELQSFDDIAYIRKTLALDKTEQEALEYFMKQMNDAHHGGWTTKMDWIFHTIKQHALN

Legend:
Assay type in all cases: biochemical
PI3Kδ (p110δ/p85α) [1] = biological target: T1, PI3Kδ (p110δ/p85α) (Homo sapiens (Human), UniProt O00329); experiment: PI3Kδ Scintillation Proximity Assay (Assay A3); conditions: column b, Assay A3 (SPA), 20 μM ATP
Excerpt: [γ-^33P]ATP (10 mCi/mL) was purchased from Perkin-Elmer (Waltham, Mass.). Lipid kinase substrate, D-myo-Phosphatidylinositol 4,5-bisphosphate (PtdIns(4,5)P2)D (+)-sn-1,2-di-O-octanoylglyceryl, 3-O-phospho linked (PIP2), CAS 204858-53-7, was purchased from Echelon Biosciences (Salt Lake City, Utah). PI3Kδ (p110δ/p85α) was purchased from Millipore (Bedford, Mass.). ATP, MgCl2, DTT, EDTA, MOPS and CHAPS were purchased from Sigma-Aldrich (St. Louis, Mo.). Wheat Germ Agglutinin (WGA) YSi SPA Scintillation Beads was purchased from GE healthcare life sciences (Piscataway, N.J.).
The kinase reaction was conducted in polystyrene 384-well matrix white plate from Thermo Fisher Scientific in a final volume of 25 μL. Inhibitors were first diluted serially in DMSO and added to the plate wells before the addition of other reaction components. The final concentration of DMSO in the assay was 0.5%. The PI3K assays were carried out at room temperature in 20 mM MOPS, pH 6.7, 10 mM MgCl2, 5 mM DTT and CHAPS 0.03%. Reactions were initiated by the addition of ATP, the final reaction mixture consisted of 20 μM PIP2, 20 μM ATP, 0.2 μCi [γ-^33P] ATP, 4 nM PI3Kδ. Reactions were incubated for 210 min and terminated by the addition of 40 μL SPA beads suspended in quench buffer: 150 mM potassium phosphate pH 8.0, 20% glycerol. 25 mM EDTA, 400 μM ATP. The final concentration of SPA beads was 1.0 mg/mL. After the plate sealing, plates were shaken overnight at room temperature and centrifuged at 1800 rpm for 10 minutes, the radioactivity of the product was determined by scintillation counting on Topcount (Perkin-Elmer). IC50 determination was performed by fitting the curve of percent control activity versus the log of the inhibitor concentration using the GraphPad Prism 3.0 software.

PI3Kα = PI3Kα (Homo sapiens (Human), UniProt P42336); experiment: PI3K Enzyme Assay A2 ([γ-33P]ATP filter plate), PI3Kα; conditions: Assay A2, 1000 μM ATP
Method: (§1) Materials: Lipid kinase substrate, phosphoinositol-4,5-bisphosphate (PIP2), was purchased from Echelon Biosciences (Salt Lake City, Utah). PI3K isoforms α, β, δ and γ were purchased from Millipore (Bedford, Mass.). ATP, MgCh, DTT, EDTA, MOPS and CHAPS were purchased from Sigma-Aldrich (St. Louis, Mo.). The kinase reaction was conducted in clear-bottom 96-well plate from Thermo Fisher Scientific in a final volume of 24 μL. Inhibitors were first diluted serially in DMSO and added to the plate wells before the addition of other reaction components. The final concentration of DMSO in the assay was 0.5%. The PI3K assays were carried out at room temperature in 20 mM MOPS, pH 6.7, 10 mM MgCl2, 5 mM DTT and CHAPS 0.03%. The reaction mixture was prepared containing 50 μM PIP2, kinase and varying concentration of inhibitors. Reactions were initiated by the addition of ATP containing 2.2 μCi [γ-^33P]ATP to a final concentration of 1000 μM. […] Reactions were incubated for 180 min and terminated by the addition of 100 μL of 1 M potassium phosphate pH 8.0, 30 mM EDTA quench buffer. […] After the plate sealing, the radioactivity of the product was determined by scintillation counting on Topcount (Perkin-Elmer). […]

PI3Kδ (p110δ/p85α) [2] = biological target: T1, PI3Kδ (p110δ/p85α); experiment: AlphaScreen Assay for PI3Kδ (Assay A1); conditions: column a, 20 μM ATP
Excerpt: PI3-Kinase luminescent assay kit including lipid kinase substrate, D-myo-phosphatidylinositol 4,5-bisphosphate (PtdIns(4,5)P2)D (+)-sn-1,2-di-O-octanoylglyceryl, 3-O-phospho linked (PIP2), biotinylated I(1,3,4,5)P4, PI(3,4,5)P3 Detector Protein, was purchased from Echelon Biosciences (Salt Lake City, Utah). AlphaScreen™ GST Detection Kit including donor and acceptor beads was purchased from PerkinElmer Life Sciences (Waltham, Mass.). PI3Kδ (p110δ/p85α) was purchased from Millipore (Bedford, Mass.). ATP, MgCb, DTT, EDTA, HEPES and CHAPS were purchased from Sigma-Aldrich (St. Louis, Mo.).
AlphaScreen™ Assay for PI3Kδ
The kinase reaction was conducted in 384-well REMP plate from Thermo Fisher Scientific in a final volume of 40 μL. Inhibitors were first diluted serially in DMSO and added to the plate wells before the addition of other reaction components. The final concentration of DMSO in the assay was 2%. The PI3K assays were carried out at room temperature in 50 mM HEPES, pH 7.4, 5 mM MgCl2, 50 mM NaCl, 5 mM DTT and CHAPS 0.04%. Reactions were initiated by the addition of ATP, the final reaction mixture consisted of 20 μM PIP2, 20 μM ATP, 1.2 nM PI3Kδ were incubated for 20 min. […] The activity of the product was determined on Fusion-alpha microplate reader (Perkin-Elmer). […]

PI3Kδ = PI3Kδ (Homo sapiens (Human), UniProt O00329); experiment: PI3K Enzyme Assay A2 ([γ-33P]ATP filter plate), PI3Kδ; conditions: column a, Examples 15, 30 and 44 used Assay A2, 1000 μM ATP
Method: as §1

Structure (SMILES) | IC50 (PI3Kδ (p110δ/p85α) [1]) | IC50 (PI3Kα) | IC50 (PI3Kδ (p110δ/p85α) [2]) | IC50 (PI3Kδ)
Cc1csc2nc(C(C)Nc3ncnc4[nH]cnc34)c(-c3cccc(F)c3)c(=O)n12 (centres unmarked) [Example 10, 6-(3-fluorophenyl)-3-methyl-7-[1-(9H-purin-6-ylamino)ethyl]-5H-[1,3]thiazolo[3,2-a]pyrimidin-5-one] | < 0.05 µM | > 0.5 µM | < 0.05 µM | 
Cc1csc2nc([C@H](C)Nc3ncnc4[nH]cnc34)c(-c3cccc(F)c3)c(=O)n12 [Example 15, (S)-7-(1-(9H-purin-6-ylamino)ethyl)-6-(3-fluorophenyl)-3-methyl-5H-thiazolo[3,2-a]pyrimidin-5-one] | < 0.05 µM | > 0.5 µM |  | < 0.05 µM
Cc1csc2nc(C(C)Nc3ncnc4[nH]cnc34)c(-c3cccc(F)c3)c(=O)n12 (centres unmarked) [Example 30, 6-(3-fluorophenyl)-3-methyl-7-[1-(9H-purin-6-ylamino)ethyl]-5H-[1,3]thiazolo[3,2-a]pyrimidin-5-one] |  |  |  | < 0.05 µM
Cc1csc2nc([C@H](C)Nc3ccnc4[nH]cnc34)c(-c3cccc(F)c3)c(=O)n12 [Example 46, 6-(3-Fluorophenyl)-7-[(1S)-1-(3H-imidazo[4,5-6]pyridin-7-ylamino)ethyl]-3-methyl-5H-[1,3]thiazolo[3,2-a]pyrimidin-5-one] | < 0.05 µM |  |  | 
